Results reported in paper PMC4207802.

Key:
[1] = target: T1 – FSHR-HinR/TSHR (human) (UniProt P16473); experiment: radioligand binding; competitive binding on intact transiently transfected COS-7 cells, 48 h after transfection; 80.000 cpm/ml 125I-bTSH with 0–100 mU/ml unlabeled bTSH; modified Hank's buffer with 1.3 mM CaCl2, 280 mM sucrose, 0.2% BSA, 2.5% milk powder; 4°C, four hours; binding to empty-vector cells subtracted; maximal binding capacity from a one-site fit, wild type TSHR set at 100%
[2] = target: T3 – TSHR-LRR11/FSHR (human) (UniProt P16473); experiment: as above
[3] = target: T4 – TSHR-LRR10/FSHR (human) (UniProt P16473); experiment: as above
[4] = target: F4 – FSHR-LRR10/TSHR (human) (UniProt P23945); experiment: as above
[5] = target: T1 – FSHR-HinR/TSHR (human) (UniProt P16473)
[6] = target: T3 – TSHR-LRR11/FSHR (human) (UniProt P16473)
[7] = target: T4 – TSHR-LRR10/FSHR (human) (UniProt P16473)
[8] = target: F4 – FSHR-LRR10/TSHR (human) (UniProt P23945)
[9] = target: T0 – TSHR (wild type human thyrotropin receptor) (human) (UniProt P16473); experiment: radioligand binding; competitive binding on intact transiently transfected COS-7 cells, 48 h after transfection; 80.000 cpm/ml 125I-bTSH with 0–100 mU/ml unlabeled bTSH; modified Hank's buffer with 1.3 mM CaCl2, 280 mM sucrose, 0.2% BSA, 2.5% milk powder; 4°C, four hours; binding to empty-vector cells subtracted; maximal binding capacity from a one-site fit, wild type TSHR set at 100%

Row | specific binding (% wt) [1] [% wt] | specific binding (% wt) [2] [% wt] | specific binding (% wt) [3] [% wt] | specific binding (% wt) [4] [% wt] | EC50 of intracellular cAMP accumulation in transfected COS-7 cells, bTSH dose-response [5] [mU/ml] | intracellular cAMP accumulation in transfected COS-7 cells, bTSH dose series; value at 100 mU/ml [5] [nM] | EC50 of intracellular cAMP accumulation in transfected COS-7 cells, bTSH dose-response; estimated value, curve did not reach a plateau [6] [mU/ml] | intracellular cAMP accumulation in transfected COS-7 cells, bTSH dose series; value at 100 mU/ml [6] [nM] | EC50 of intracellular cAMP accumulation in transfected COS-7 cells, bTSH dose-response; estimated value, curve did not reach a plateau [7] [mU/ml] | intracellular cAMP accumulation in transfected COS-7 cells, bTSH dose series; value at 100 mU/ml [7] [nM] | EC50 of intracellular cAMP accumulation in transfected COS-7 cells, bTSH dose-response [8] [mU/ml] | intracellular cAMP accumulation in transfected COS-7 cells, bTSH dose series; value at 100 mU/ml [8] [nM] | specific binding (% wt) [9] [% wt] | Substance
1 | 28 | 7 | 7 | 19 | 2 | 60.8 | 13.7 | 31.2 | 25.2 | 30.7 | 10.3 | 45.1 | – | bovine thyrotropin (bTSH) (from UniProt P01217 25-120; P01223 21-132) (ligand)
2 | – | – | – | – | – | – | – | – | – | – | – | – | 100 | bovine thyrotropin (bTSH) (from UniProt P01217 25-120; P01223 21-132) (ligand; other documents disagree on this pair)
